Assay results as given in EP0971717B1, “CYTOTOXIC AMINO SUGAR AND RELATED SUGAR DERIVATIVES OF INDOLOPYRROLOCARBAZOLES” (Bristol-Myers Squibb Company, priority 1996, dated 1998).

Chains of the proteins cited; added tags and fusions are not shown.
UniProt P11387, whole entry: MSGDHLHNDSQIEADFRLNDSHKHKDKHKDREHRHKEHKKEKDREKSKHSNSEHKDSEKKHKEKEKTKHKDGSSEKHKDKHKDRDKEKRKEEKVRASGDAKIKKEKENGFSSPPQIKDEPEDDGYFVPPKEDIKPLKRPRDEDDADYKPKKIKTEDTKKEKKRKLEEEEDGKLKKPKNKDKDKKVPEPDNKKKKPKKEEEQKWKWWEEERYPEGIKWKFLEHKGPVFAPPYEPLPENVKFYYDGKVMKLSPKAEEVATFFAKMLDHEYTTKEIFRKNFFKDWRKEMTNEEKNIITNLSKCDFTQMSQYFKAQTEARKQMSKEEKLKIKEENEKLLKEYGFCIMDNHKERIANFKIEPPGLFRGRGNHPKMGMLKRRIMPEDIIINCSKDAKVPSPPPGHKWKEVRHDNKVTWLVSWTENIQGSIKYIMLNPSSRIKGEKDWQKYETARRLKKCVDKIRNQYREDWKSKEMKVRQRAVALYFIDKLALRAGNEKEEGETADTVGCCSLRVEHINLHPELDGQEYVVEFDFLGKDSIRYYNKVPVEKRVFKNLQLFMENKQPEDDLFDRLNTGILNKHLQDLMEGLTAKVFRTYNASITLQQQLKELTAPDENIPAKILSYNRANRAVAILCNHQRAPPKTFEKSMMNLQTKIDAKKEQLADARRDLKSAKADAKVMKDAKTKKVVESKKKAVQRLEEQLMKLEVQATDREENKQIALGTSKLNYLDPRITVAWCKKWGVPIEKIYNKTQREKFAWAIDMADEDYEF

Experiments:
[1] = target: purified human topoisomerase I (Homo sapiens, UniProt P11387); assay: Topoisomerase I mediated single strand break formation in DNA (in vitro); settings: PM2 DNA, 30 minutes at 37° C; median effective concentration for single strand DNA break formation
Experimental: Samples dissolved in 100% DMSO as either […] or 10 mg/ml solutions, unless otherwise stated, were diluted in Tris-EDTA buffer. Marine bacteriophage PM2 DNA (Boehringer Mannheim) was also diluted in Tris-EDTA buffer to a concentration of 0.02 µg/µl. Different dilutions of compound being evaluated were mixed with diluted DNA and this mixture was added to 1000 unit (one unit of enzyme activity is defined as the amount capable of relaxing 100 ng of supercoiled DNA in approximately 30 minutes at 37°C) aliquots of purified human topoisomerase I (Topogen) in 2X reaction buffer to start the reaction. The compound - DNA - enzyme mixture was incubated for 30 minutes at 37° C before stopping the reaction with warm stop buffer containing sodium dodecyl sulfate and proteinase K (Sigma). These mixtures were allowed to incubate at 37° C for another 10 minutes, at which time the mixtures were removed from the waterbath and extracted with a 24:1 mixture of chloroform/isoamyl alcohol. […] Negatives of photographs of the irradiated gels were scanned with a densitometer and areas under the peaks were calculated in order to obtain percent single strand DNA break formation for each sample. […]

[2] = system: HCT116 human colon carcinoma cells; assay: In-vitro cell-based cytotoxicity, XTT assay; settings: 72 hrs incubation, absorbance at 450 nm
Experimental: The proliferation inhibition activity against human colon cell line was measured as follows.
Cytotoxicity was assessed in HCT116 human colon carcinoma cells by XTT (2,3-bis(2-methoxy-4-nitro- 5-sulfophenyl)-5-[(phenylamino)carbonyl]-2H-tetrazolium hydroxide assay as described in the literature by Scudiero, DA, Shoemaker, RH, Paull, KD, Monks, A, Tierney, S, Nofziger, TH, Currens, MJ, Seniff, D, and Boyd, MR. Evaluation of a soluble tetrazolium/formazan assay for cell growth and drug sensitivity in culture using human and other tumor cell lines, was done according to the procedure described in Cancer Res. 48: 4827-4833, 1988. Cells were plated at 4000 cells/well in 96 well microtiter plates and 24 hrs later drugs were added and serial diluted. The cells were incubated at 37° C for 72 hrs at which time the tetrazolium dye, XTT, containing phenazine methosulfate was added. A dehydrogenase enzyme in live cells reduces the XTT to a form that absorbs light at […] which can be quantitated spectrophotometrically. The greater the absorbance the greater the number of live cells. The results are expressed as an IC50 which is the drug concentration required to inhibit cell proliferation (i.e. absorbance at 450 nm) to 50% of that of untreated control cells.

- EC50 [1]: 230 nM
Structure (SMILES): [N-]=[N+]=NC[C@H]1O[C@@H](n2c3ccc(F)cc3c3c4c(c5c6cc(F)ccc6[nH]c5c32)C(=O)NC4=O)[C@H](O)[C@@H](O)[C@@H]1O
- IC50 [2]: 170 nM
